Amino acid sequences for entries named in this document (tags omitted).
UniProt P11416, whole entry: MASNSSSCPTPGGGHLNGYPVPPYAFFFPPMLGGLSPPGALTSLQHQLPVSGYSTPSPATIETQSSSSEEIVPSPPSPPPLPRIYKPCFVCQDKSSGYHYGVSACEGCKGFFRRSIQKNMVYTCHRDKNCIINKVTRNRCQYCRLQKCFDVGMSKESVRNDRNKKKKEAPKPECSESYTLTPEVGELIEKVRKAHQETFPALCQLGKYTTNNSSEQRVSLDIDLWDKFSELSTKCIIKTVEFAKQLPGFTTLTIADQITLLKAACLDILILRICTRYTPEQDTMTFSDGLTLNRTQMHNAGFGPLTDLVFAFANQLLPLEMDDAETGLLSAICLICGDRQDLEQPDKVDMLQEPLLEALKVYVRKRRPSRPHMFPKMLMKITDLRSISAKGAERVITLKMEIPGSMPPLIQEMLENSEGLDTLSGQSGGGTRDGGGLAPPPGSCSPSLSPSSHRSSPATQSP
UniProt P18911, whole entry: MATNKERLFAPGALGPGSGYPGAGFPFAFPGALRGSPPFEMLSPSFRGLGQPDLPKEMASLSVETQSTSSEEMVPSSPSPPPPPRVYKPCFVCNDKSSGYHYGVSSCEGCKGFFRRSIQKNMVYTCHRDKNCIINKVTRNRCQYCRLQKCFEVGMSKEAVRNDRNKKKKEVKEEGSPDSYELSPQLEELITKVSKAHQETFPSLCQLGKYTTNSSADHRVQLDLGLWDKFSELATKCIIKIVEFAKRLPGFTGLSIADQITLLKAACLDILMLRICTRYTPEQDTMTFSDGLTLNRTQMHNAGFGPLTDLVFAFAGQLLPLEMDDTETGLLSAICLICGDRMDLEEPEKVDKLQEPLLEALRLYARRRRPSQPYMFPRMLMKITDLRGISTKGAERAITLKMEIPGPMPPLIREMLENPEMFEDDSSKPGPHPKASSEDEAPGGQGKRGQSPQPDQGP

According to ChEMBL document CHEMBL1131217, “Conformationally defined retinoic acid analogues. 4. Potential new agents for acute promyelocytic and juvenile myelomonocytic leukemias” (J Med Chem, 1998):

What was measured:
[1] = molecular target: T1, Retinoic acid receptor alpha (Mus musculus, UniProt P11416); assay: (§1) Transcriptional activation in CV-1 cells expressing retinoid A receptor RAR alpha; assay type: cell-based
[2] = molecular target: T1, Retinoic acid receptor alpha; assay: Inhibition of binding to retinoid A receptor RAR alpha
[3] = molecular target: T1, Retinoic acid receptor alpha; assay: as §1; assay type: cell-based; remark: listed apart in the source
In short: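 CV-1 cells were transiently transfected with a plasmid for the relevant RAR subtype plus a (TREpal)2-tk-CAT reporter. Retinoids were tested over 1–1000 nM. CAT activity was the read-out. EC50 for half-maximal activation was obtained by Probit analysis of the dose–response curve.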

[4] = molecular target: Retinoic acid receptor gamma (Mus musculus, UniProt P18911); assay: Inhibition of binding to retinoid A receptor RAR gamma

| SMILES | EC50 [1] [µM] | IC50 [2] [µM] | EC50 [3] [µM] | IC50 [4] [µM] |
| --- | --- | --- | --- | --- |
| CCC1=C(C(C)C)/C(=C/C(C)=C\C=C/C(C)=C/C(=O)O)CCC1 | > 1 | > 1 | – | – |
| CC1=C(\C=C/C(C)=C/C=C/C(C)=C/C(=O)O)C(C)(C)CCC1 | – | 0.031 | 0.018 | 0.06 |
| CC1=C(/C=C/C(C)=C/C=C/C(C)=C/C(=O)O)C(C)(C)CCC1 [TRETINOIN] | – | – | 0.022 | – |
